From ChEMBL document CHEMBL3352598, “Synthesis, pharmacological evaluation and molecular modeling studies of triazole containing dopamine D3 receptor ligands” (Bioorg Med Chem Lett, 2015)

Species on record: Homo sapiens
Assay: Selectivity index, ratio of Ki for D4 receptor to Ki for human D3 receptor

In the case of `COc1ccccc1N1CCN(CCCCNC(=O)c2ccc(CCF)cc2)CC1`, the Ratio Ki was 335.
